Literature values in patent US20020037872A1, “N6 heterocyclic 5' modified adenosine derivatives” (CV Therapeutics, Inc., priority 1999, published 2002).

Chains of the proteins cited; added tags and fusions are not shown.
UniProt P34970, whole entry: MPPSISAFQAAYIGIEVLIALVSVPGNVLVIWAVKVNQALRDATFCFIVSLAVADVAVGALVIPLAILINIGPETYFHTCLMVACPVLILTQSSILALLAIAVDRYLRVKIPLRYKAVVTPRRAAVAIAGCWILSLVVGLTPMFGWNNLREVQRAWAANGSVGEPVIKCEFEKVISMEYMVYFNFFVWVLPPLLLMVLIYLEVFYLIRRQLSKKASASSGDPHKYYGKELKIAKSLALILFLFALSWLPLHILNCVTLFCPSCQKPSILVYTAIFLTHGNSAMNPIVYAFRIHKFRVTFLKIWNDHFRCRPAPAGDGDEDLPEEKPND

Molecular target: T1, A1 receptor (Oryctolagus cuniculus, UniProt P34970)
T1 construct: a rabbit ischemia model wherein 2-chloro-N6-cyclopentyladenosine (CCPA) and R-PIA were administered prior to ischemia; host or cells: rabbit in vivo
Conditions: administered prior to ischemia; cited from earlier work

Structure (SMILES): C[C@H](Cc1ccccc1)Nc1ncnc2c1ncn2[C@@H]1O[C@H](CO)[C@@H](O)[C@H]1O [R-PIA, R-N6-phenylisopropyladenosine]
- protection with respect to infarct size: providing protection with respect to infarct size
